{"sequences": {"note": "Amino acid sequences for entries named in this document (tags omitted).", "UniProt P21728, whole entry, looked up": "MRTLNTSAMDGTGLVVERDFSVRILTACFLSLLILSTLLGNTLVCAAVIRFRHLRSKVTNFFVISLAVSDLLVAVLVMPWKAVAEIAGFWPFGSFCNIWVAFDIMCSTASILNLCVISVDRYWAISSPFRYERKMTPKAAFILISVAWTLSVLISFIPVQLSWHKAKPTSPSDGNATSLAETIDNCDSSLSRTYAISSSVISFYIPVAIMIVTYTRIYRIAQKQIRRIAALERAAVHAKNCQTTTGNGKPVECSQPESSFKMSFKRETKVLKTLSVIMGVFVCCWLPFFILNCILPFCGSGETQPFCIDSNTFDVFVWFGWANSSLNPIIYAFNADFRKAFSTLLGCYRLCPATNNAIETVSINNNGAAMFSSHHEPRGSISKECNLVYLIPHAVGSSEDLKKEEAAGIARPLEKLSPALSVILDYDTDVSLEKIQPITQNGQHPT"}, "source": "PubChem BioAssay AID504651", "about": "(National Center for Advancing Translational Sciences (NCATS), 2011)", "note": "Only a part is listed here, and it is no random draw. Activity calls are given as the source filed them. Rule as the data show it: active = potentiation above about 30%; inactive = the rest.", "data": [{"molecular_target": "D(1A) dopamine receptor (Homo sapiens) (UniProt P21728)", "assay": "Potentiators of Human D1 Dopamine Receptor: qHTS; also: 0% is about no effect", "details": "HEK293 TREx D1 cells, calcium flux, dopamine EC20 potentiation; at 10 µM; hits give high values", "excerpt": "Dopamine receptors (DARs) are involved in the etiology and/or therapy of a number of neuropsychiatric and endocrine disorders. For instance, all receptor-based antiparkinsonian drugs work via stimulating the D1 DAR subtype whereas all FDA-approved antipsychotic agents are antagonists of this receptor. […] There are three different types of allosteric modulators that we are seeking, two of which will stimulate or augment receptor signaling, allosteric agonists and potentiators, while the third, allosteric antagonists, will attenuate receptor signaling. The present primary screening assay measures compound potentiation of an EC20 dopamine response by tracking calcium flux in a […], inducible Hek293 Trex D1 cell line.\nNIH Chemical Genomics Center [NCGC]\nNIH Molecular Libraries Probe Centers Network [MLPCN]\nAssay Submitter (PI): David Sibley\nFreshly passaged cells are plated in 1536 well black, clear bottom plates at a density of 4000 cells/well in 3 ul of complete media containing 1x tetracycline inducer. After an overnight incubation at 30 C in 5% CO2, cells are loaded with 2 ul of the no wash Calcium Assay Kit (ABD Bioquest) and incubated at room temperature for 30 to 90 minutes. A 10 cycle (1 second/cycle) baseline measurement is taken and then the FDSS online 1536 pintool delivers 23 nl of compound library (as well as dopamine controls) to the plate. The plate is measured for kinetically at 1 cycle/sec for 180 seconds and is considered to be the agonist portion of the assay (eg, compounds which activate a positive calcium response during this portion are flagged as potential agonists). Following the 180 second read, 1 ul of an EC20 of dopamine is delivered by an onboard pipette head. Measurements are taken kinetically for an additional 180 seconds.", "values": [{"molecule": "Cc1cc(=O)[nH]c(N[N+](=O)[O-])n1", "potentiation": "inactive: -12.2%"}, {"molecule": "O=C(OC1CN2CCC1CC2)C12CC3CC(CC(C3)C1)C2", "note": "(centres undefined)", "potentiation": "inactive: -8.8%"}, {"molecule": "Cc1c2c(nc3ccccc13)SC(C(Cl)Cl)C2", "note": "(centres undefined)", "potentiation": "inactive: -5.15%"}, {"molecule": "COc1cc(I)ccc1[As](=O)(O)O", "potentiation": "inactive: -5%"}, {"molecule": "COc1ccc2nc(NP(=O)(c3ccccc3)c3ccccc3)sc2c1", "potentiation": "inactive: -4.85%"}, {"molecule": "COc1ccc(N/C(=N/P(=O)(N2CCOCC2)N2CCOCC2)N2CCOCC2)cc1", "potentiation": "inactive: -2.6%"}, {"molecule": "COc1cc(C(=O)NCC2(N3CCOCC3)CCCCC2)ccc1OCC(C)C", "potentiation": "inactive: -4.85%"}, {"molecule": "O=[As](O)(c1ccc(O)cc1)c1ccccc1O", "potentiation": "inactive: -4.5%"}, {"molecule": "C[As](=O)(O)c1cccc(C(=O)O)c1", "potentiation": "inactive: 4.2%"}, {"molecule": "Cc1ccc2nc3c(c(C)c2c1)CC(C(Cl)Cl)S3", "note": "(centres undefined)", "potentiation": "inactive: -4%"}, {"molecule": "Cc1ccc(OP(=O)(Nc2ccc([N+](=O)[O-])cn2)Oc2ccc(C)cc2)cc1", "potentiation": "inactive: 2.8%"}, {"molecule": "CC(C)c1ccc(OP(=O)(Nc2ccccn2)Oc2ccccc2F)cc1", "note": "(centres undefined)", "potentiation": "inactive: 0.85%"}, {"molecule": "ClCCSc1nnc(-c2cccnc2)o1", "potentiation": "inactive: -4.35%"}, {"molecule": "O=[N+]([O-])c1cc([N+](=O)[O-])c(-c2ccn[nH]2)s1", "potentiation": "inactive: -2.25%"}, {"molecule": "CC(C)NC(=O)NP(=O)(Oc1ccccc1)Oc1ccccc1", "potentiation": "inactive: -0.422%"}, {"molecule": "CCN(CC)C(=S)SC(NC=O)C(Cl)(Cl)Cl", "note": "(centres undefined)", "potentiation": "inactive: -5.95%"}, {"molecule": "CS(=O)(=O)c1cc([N+](=O)[O-])c2no[n+]([O-])c2c1", "potentiation": "inactive: 0.75%"}, {"molecule": "O=P(Nc1nccs1)(Oc1ccccc1)Oc1ccccc1", "potentiation": "inactive: -2.35%"}, {"molecule": "O=P(Nc1nccs1)(c1ccccc1)c1nc2ccccc2s1", "note": "(centres undefined)", "potentiation": "inactive: -0.65%"}, {"molecule": "CCOP1(=S)c2c(C)nn(CCC#N)c2N=C(c2ccccc2F)N1C", "note": "(centres undefined)", "potentiation": "inactive: 2.95%"}, {"molecule": "O=C(O)COc1ccc([As](=O)(O)O)cc1[N+](=O)[O-]", "potentiation": "inactive: -4.5%"}, {"molecule": "Nc1ccccc1[As](=O)(O)c1ccccc1", "potentiation": "inactive: -4.3%"}, {"molecule": "NC(=O)Nc1ccc([As](=O)(O)O)cc1", "potentiation": "inactive: -1%"}, {"molecule": "O=[N+]([O-])c1ccc2c(c1)nnn2O", "potentiation": "inactive: -2.5%"}, {"molecule": "CN(C(=O)Cc1ccccc1)[C@@H]1CC[C@]2(CCCO2)C[C@H]1N1CCCC1", "potentiation": "inactive: -7%"}, {"molecule": "CCOP1(=S)c2c(C)nn(CCC#N)c2N=C(c2ccc(F)cc2)N1C", "note": "(centres undefined)", "potentiation": "inactive: -9.15%"}, {"molecule": "N#CCCN(C(=O)COC(=O)C(O)(c1ccccc1)c1ccccc1)c1ccc(F)cc1", "potentiation": "inactive: -3.1%"}, {"molecule": "CS(=O)(=O)c1ccc(Cl)c(NC(=O)COC(=O)C(O)(c2ccccc2)c2ccccc2)c1", "potentiation": "inactive: -4.11%"}, {"molecule": "O=[As](O)(O)c1cccnc1", "potentiation": "inactive: 6.35%"}, {"molecule": "COc1cc(C(=O)NCC2(N3CCOCC3)CCCCC2)cc(Cl)c1OC(C)C", "potentiation": "inactive: 0%"}, {"molecule": "O=C(OC1CN2CCC1CC2)c1ccc(Cl)cc1", "note": "(centres undefined)", "potentiation": "inactive: -1.35%"}, {"molecule": "Cc1cccc(OCC(=O)OC2CN3CCC2CC3)c1", "note": "(centres undefined)", "potentiation": "inactive: -7.8%"}, {"molecule": "O=[As](O)(c1cccc(O)c1)c1cccc(O)c1", "potentiation": "inactive: -1%"}, {"molecule": "CCCOP(=S)(Nc1nc(N)cc(=O)[nH]1)OCCC", "potentiation": "inactive: -0.55%"}, {"molecule": "Cc1ccc(NCCc2c([N+](=O)[O-])cc([N+](=O)[O-])cc2[N+](=O)[O-])cc1", "potentiation": "inactive: 6.7%"}, {"molecule": "Nc1cccc2c([As](=O)(O)O)cccc12", "potentiation": "inactive: -6.6%"}, {"molecule": "CCOP(=O)(Nc1cccc2ccccc12)OCC", "potentiation": "inactive: -2.8%"}, {"molecule": "COc1cc(C2NCCC3(OCCO3)C2(C)C)cc(OC)c1OC", "note": "(centres undefined)", "potentiation": "inactive: -3.45%"}, {"molecule": "CCOP(=O)(Nc1ccc(C)cn1)OCC", "potentiation": "inactive: -8.25%"}, {"molecule": "CCOP(=O)(NC(=NC(C)c1ccccc1)NC(C)c1ccccc1)OCC", "note": "(centres undefined)", "potentiation": "inactive: -1.85%"}, {"molecule": "CCC1=CC2Cc3nc4ccc(Cl)cc4c(N)c3C(C1)C2", "note": "(centres undefined)", "potentiation": "inactive: 0.85%"}, {"molecule": "O=P1(Nc2ccccn2)COc2ccccc2OC1", "potentiation": "inactive: -6.9%"}, {"molecule": "CC(C)(C)C(=O)NC(Sc1ncccn1)C(Cl)(Cl)Cl", "note": "(centres undefined)", "potentiation": "inactive: -1.4%"}, {"molecule": "Clc1n[nH]nc1-c1nn[nH][15n]1", "potentiation": "inactive: -3.9%"}, {"molecule": "COc1ccccc1CNC(=O)COC(=O)C(O)(c1ccccc1)c1ccccc1", "potentiation": "inactive: 7.95%"}, {"molecule": "O=[As](O)(c1ccccc1Br)c1ccccc1Br", "potentiation": "inactive: 6.4%"}, {"molecule": "CN(C(=O)Cc1ccc(Cl)c(Cl)c1)[C@@H]1CCCC[C@H]1N1CCCC1", "potentiation": "inactive: -2.75%"}, {"molecule": "CC(C)/C=N\\N=C(\\N)N[N+](=O)[O-]", "potentiation": "inactive: -2.6%"}, {"molecule": "Cc1ccc(C(=O)OC2CN3CCC2CC3)cc1", "note": "(centres undefined)", "potentiation": "inactive: 9.05%"}, {"molecule": "CC1CCC(C(C)C)C(OP(=O)(Nc2ccccn2)c2ccccc2)C1", "note": "(centres undefined)", "potentiation": "inactive: -0.3%"}, {"molecule": "Cc1nn(-c2ccccc2)c2c1P(=O)(N1CCOCC1)N(C)C(c1ccccc1)=N2", "note": "(centres undefined)", "potentiation": "inactive: 3.95%"}, {"molecule": "O=C(/C=C/c1ccccc1)OC1CN2CCC1CC2", "note": "(centres undefined)", "potentiation": "inactive: -4.5%"}, {"molecule": "CN(C)C1(CNC(=O)c2ccc(S(C)(=O)=O)cc2)CCCCC1", "potentiation": "inactive: -1.65%"}, {"molecule": "O=P1(Nc2ncccn2)COc2ccccc2OC1", "potentiation": "inactive: -4.1%"}, {"molecule": "Cc1ccc(OCC(=O)OC2CN3CCC2CC3)cc1", "note": "(centres undefined)", "potentiation": "inactive: 3.45%"}, {"molecule": "O=[As](O)(c1cccs1)c1cccs1", "potentiation": "inactive: 5.65%"}, {"molecule": "NS(=O)(=O)c1cccc(NC(=O)COC(=O)C(O)(c2ccccc2)c2ccccc2)c1", "potentiation": "inactive: -2.75%"}, {"molecule": "O=P1(Nc2ccc(Br)cn2)COc2ccccc2OC1", "potentiation": "inactive: -6.25%"}, {"molecule": "Nc1cccc([As](=O)(O)c2ccccc2)c1", "potentiation": "inactive: -2.25%"}]}]}
